The target in this assay is T1, human autotaxin (ATX) (Homo sapiens, UniProt Q13822).
T1 construct: ATX activity is assayed in concentrated conditioned media from Hep3B human hepatocellular carcinoma cells; endogenous in cells; host or cells: Hep3B human hepatocellular carcinoma cells (20-fold concentrated conditioned medium)
Description: Human autotaxin assay (choline release from LPC, Hep3B conditioned media). Type of assay: biochemical. Conditions: LPC 14:0 100 uM. The procedure: ATX activity is assayed in concentrated conditioned media from Hep3B human hepatocellular carcinoma cells by measuring the amount of choline released from the substrate, lysophosphatidylcholine (LPC) as it is cleaved to LPA. Conditioned media is collected from confluent Hep3B cells and concentrated 20-fold using Centriprep-30 filter devices (Millipore).

By IC50 is commonly meant the point on the concentration scale where inhibition reaches its midpoint. Read a high IC50 as lower potency.

`Cc1c(Sc2cccc(C(=O)O)c2F)c2ccc(Cl)c(F)c2n1CC(=O)N1CCC(O)(C(F)(F)F)C1` (single isomer, unassigned) [Compound E] yielded an IC50 below 500 nM.

(Values after US9051320B1, “Methods for the treatment of metabolic disorders by a selective small molecule autotaxin inhibitor” (PharmAkea, Inc., priority 2014, dated 2015).)
